Test system: OVCAR-8 cells
Assay: Drug-siRNA combination screen: 346-compound anticancer library at 100 nM, CCK-8 viability

**Q.** Which “synergy / antagonism of drug with gene knockdowns, in words” value does the source give for `CN(Cc1cnc2nc(N)nc(N)c2n1)c1ccc(C(=O)N[C@@H](CCC(=O)O)C(=O)O)cc1` [Methotrexate] here?
**A.** antagonism with most knockdowns

— patent US11946094B2, “Combination therapies and methods of use thereof” (Augusta University Research Institute, Inc., priority 2017, dated 2024)
